Test results from ChEMBL document CHEMBL3593212, “Synthesis and evaluation of novel 1H-pyrrolo[2,3-b]pyridine-5-carboxamide derivatives as potent and orally efficacious immunomodulators targeting JAK3” (Bioorg Med Chem, 2015).

By UniProt entry, the sequences of proteins in these tests, tags left out. Where a name states a change or a piece, a line headed by the entry shows the natural chain unless it says otherwise.
UniProt P23458: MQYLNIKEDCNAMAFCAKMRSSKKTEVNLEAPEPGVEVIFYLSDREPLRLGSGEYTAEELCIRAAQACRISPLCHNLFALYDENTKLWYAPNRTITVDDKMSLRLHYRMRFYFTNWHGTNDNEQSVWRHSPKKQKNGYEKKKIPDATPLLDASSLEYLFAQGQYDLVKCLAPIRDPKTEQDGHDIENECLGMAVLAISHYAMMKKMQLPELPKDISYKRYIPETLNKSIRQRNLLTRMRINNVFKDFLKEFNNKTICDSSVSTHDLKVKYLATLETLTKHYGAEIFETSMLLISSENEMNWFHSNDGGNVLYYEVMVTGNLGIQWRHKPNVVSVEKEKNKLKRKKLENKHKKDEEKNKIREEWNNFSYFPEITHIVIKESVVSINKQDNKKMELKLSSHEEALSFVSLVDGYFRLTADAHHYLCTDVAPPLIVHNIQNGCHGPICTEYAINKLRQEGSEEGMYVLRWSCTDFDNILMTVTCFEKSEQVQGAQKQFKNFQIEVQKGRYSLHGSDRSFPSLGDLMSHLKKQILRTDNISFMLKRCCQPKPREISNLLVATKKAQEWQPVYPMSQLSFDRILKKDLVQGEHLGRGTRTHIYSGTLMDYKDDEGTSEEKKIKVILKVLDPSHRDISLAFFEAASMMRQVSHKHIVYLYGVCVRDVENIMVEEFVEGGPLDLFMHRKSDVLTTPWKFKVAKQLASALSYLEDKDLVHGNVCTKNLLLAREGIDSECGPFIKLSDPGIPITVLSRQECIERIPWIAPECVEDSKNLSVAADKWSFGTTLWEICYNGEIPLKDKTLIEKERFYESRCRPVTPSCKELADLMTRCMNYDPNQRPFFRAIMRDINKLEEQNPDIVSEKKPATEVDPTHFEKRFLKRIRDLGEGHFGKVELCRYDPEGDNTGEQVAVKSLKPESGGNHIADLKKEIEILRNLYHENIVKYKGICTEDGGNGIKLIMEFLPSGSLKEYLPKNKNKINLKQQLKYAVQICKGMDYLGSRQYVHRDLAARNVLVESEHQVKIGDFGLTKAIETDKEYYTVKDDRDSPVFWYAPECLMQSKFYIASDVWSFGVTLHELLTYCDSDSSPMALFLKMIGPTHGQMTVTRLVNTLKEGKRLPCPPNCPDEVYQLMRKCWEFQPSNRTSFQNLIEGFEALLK

Target: Tyrosine-protein kinase JAK1 (Homo sapiens, UniProt P23458)
Assay: Inhibition of human JAK1 kinase domain using biotin-Lyn-substrate-2 as substrate incubated for 1 hr by ELISA method

Work on NC(=O)c1cnc2[nH]ccc2c1NC1CCN(Cc2ccccc2)CC1 yielded an IC50 of 84 nM.
